Data set [1] is described as follows: Circular dichroism spectroscopy. Format: physicochemical. The settings on record: for min λ, Phosphate buffer / Conformation in buffer: 10 mM sodium phosphate buffer, pH 7.2.
The nature of data set [2]: Acute single dose toxicity, intravenous route, isotonic saline. Format: in vivo. Conditions: Swiss CD1 mice, 5 days. How it is done:
In vivo toxicity of a peptide is measured through administration of a range of doses to animals, typically mice, by a route defined in part by the intended clinical use. […]. Indolicidin analogues less toxic than indolicidin are preferred.
(§1) The acute, single dose toxicity of various indolicidin analogues is tested in Swiss CD1 mice using various routes of administration. In order to determine the inherent toxicities of the peptide analogues in the absence of any formulation/delivery vehicle effects, the peptides are all administered in isotonic saline with the final pH between 6 and 7.
Intravenous route. […]. […]

For another data set, the system named is sheep RBC. The data set is described as follows: Red blood cell (RBC) lysis assay, standardized conditions (1% RBC). The data set is classed as cell-based. Conditions: 1% (v/v) sheep RBC, pH 6-7; for % lysis at 5 μg/ml: 5 μg/ml peptide; for % lysis at 50 μg/ml: 50 μg/ml peptide; for % lysis at 500 μg/ml: 500 μg/ml peptide.
A short description of data set [3]: Acute single dose toxicity, intraperitoneal route, isotonic saline. Format: in vivo. The settings on record: Swiss CD1 mice, 5 days. How it is done: In vivo toxicity of a peptide is measured through administration of a range of doses to animals, typically mice, by a route defined in part by the intended clinical use. The survival of the animals is recorded and LD50, LD90-100, and maximum tolerated dose (MTD) can be calculated to enable comparison of analogues. Indolicidin analogues less toxic than indolicidin are preferred.
as §1
Intraperitoneal route. Groups of 6 mice are injected with peptide doses of between 80 and 5 mg/kg in 500 μl dose volumes. […] The LD50 values are calculated using the method of Reed and Muench (J. of Amer. Hyg. 27:493-497, 1938).

Data set [4] is described as follows: Peptide stability in rabbit serum or plasma, with or without protease inhibitors. Format: in vitro ADME. Conditions: 22° C., Amastatin and bestatin at 100 μM. How it is done: A 1 mg/mL solution of MBI 11B7CN in isotonic saline is added to freshly prepared heat-inactivated rabbit serum, to give a final peptide concentration of 100 μg/mL and is incubated at 32° C.
A series of peptide stability studies are performed to investigate the action of protease inhibitors on peptide degradation. Peptide is added to rabbit serum or plasma, either with or without protease inhibitors, then incubated at 22° C. for 3 hrs. Protease inhibitors tested include amastatin, bestatin, COMPLETE protease inhibitor cocktail, leupeptin, pepstatin A and EDTA. […] For this experiments 10 mM stock solutions of amastatin and bestatin are prepared in dimethylsulfoxide. These solutions are diluted 1:100 in heat-inactivated rabbit serum and incubated at 22° C. for 15 mins prior to addition of peptide. MBI 11B7CN is added to the serum at a final concentration of 100 μg/mL and incubated for 3 hrs at 22° C. After the incubation period, the serum samples are analyzed on an analytical C8 column (Waters Nova Pak C8 3.9×170 mm) with detection at 280 nm. In FIG. 13, MBI 11B7CN elutes at 25 min.
Peptide is extracted from plasma using C8 Sep Pak cartridges at peptide concentrations between 0 and 50 μg/mL. Each extraction also contains MBI 11CN at 10 μg/mL as an internal standard. […] The peptides are detected at 280 nm. […] MBI 11B7CN is detected over background at concentrations of 5 μg/mL and above.

For data set [5], the system named is mammalian red blood cells.
A further data set concerns E. cloacae. The settings on record: E. cloacae ECL007; unmodified parent peptide.
Data set [6] in a line: Solubility in broth (visual inspection). The data set is classed as physicochemical. On the procedure: Solubility of the peptide in formulation buffer is an additional parameter that may be examined. Several different assays may be used, such as appearance in buffer. Briefly, peptide is suspended in solution, such as broth or formulation buffer. The appearance is evaluated according to a scale that ranges from (a) clear, no precipitate, (b) light, diffuse precipitate, to (c) cloudy, heavy precipitate. Finer gradations may be used. In general, less precipitate is more desirable. However, some precipitate may be acceptable.
The solubility of peptide analogues is assessed in calcium and magnesium supplemented Mueller Hinton broth by visual inspection. The procedure employed is that used for the broth dilution assay except that bacteria are not added to the wells. The appearance of the solution in each well is evaluated according to the scale: (a) clear, no precipitate, (b) light diffuse precipitate and (c) cloudy, heavy precipitate.

Several values for one entry are separate records, joined by “and”; a condition that tells them apart may be missing. Equal entries are not always repeated.

As to ILRWPWWPWRRK [MBI 11B7CN], the “min λ, Phosphate buffer” value in data set [1] (CD spectrum) was 200 nm. The Conformation in buffer result in data set [1] (CD) is “Unordered”. In addition, the “Conformation in TFE” value in data set [1] (CD, phosphate buffer and 40% (v/v) trifluoroethanol) is given as “Unordered”. Moreover, in data set [2], the LD50 (usually the dose at which mortality reaches 50%) came to 7.5 mg/kg, the LD90-100 stood at 16 mg/kg and the MTD is listed as 4 mg/kg. Moreover, in the data set on sheep RBC, the “% lysis at 5 μg/ml” value was 4%, the “% lysis at 50 μg/ml” value was found to be 13% and the “% lysis at 500 μg/ml” value was 46%. Further, in data set [3], the LD50 was determined as 52 mg/kg, the LD90-100 is listed as >80 mg/kg and the MTD is 30 mg/kg. Also, the “degradation of peptide in plasma over 3 hrs” value in data set [4] is reported as “prevent the degradation”. The “% Lysis” value in data set [5] ([…], 37° C., 1 hour) is on record as 3.2%.

For ILRWVWWVWRRK [MBI 11F4CN], in data set [1] (CD spectrum), the “min λ, Phosphate buffer” value is 202, nm and 220 nm. Also, in data set [1] (CD spectrum, phosphate buffer and 40% (v/v) trifluoroethanol), the “min λ, TFE” value is 206, nm and 222 nm. Moreover, the Conformation in buffer entry in data set [1] (CD) was “Unordered”. In data set [2], this sequence yielded an LD50 of 15 mg/kg, an LD90-100 of 20 mg/kg and an MTD of 12 mg/kg. Further, in the data set on sheep RBC, the “% lysis at 5 μg/ml” value turned out to be 4%, the “% lysis at 50 μg/ml” value is given as 32% and the “% lysis at 500 μg/ml” value was found to be 38%. Moreover, the “MIC, Peptide” value with E. cloacae amounted to 32 µg/mL. Also, the “hemolytic, relative to the peptides tested” value in data set [5] is “most insoluble and hemolytic”. In data set [6], the “solubility, relative to the peptides tested” value is “most insoluble”.
